# Ab-14 light chain CDR variants: yeast mating affinities

Target peptide (SARS-CoV-2 spike, HR2 region): PDVDLGDISGINAS

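These sequences belong to a second round, designed from the earlier measurements on random variants of the parent. Several design methods are mixed in this list. Affinity was read by AlphaSeq, a pooled yeast mating assay with surface-displayed partners. Pairs that bind mate more often; barcode pairs of the diploids are counted by sequencing. The ratio of observed to expected reads was calibrated, replicate by replicate, on BCL2-family standards whose Kd was known from biolayer interferometry. Mating was done six times.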

Parent: Ab-14, a human scFv built as VH, three GGGGS repeats, VL. Only the CDRs of the light chain vary.
VH: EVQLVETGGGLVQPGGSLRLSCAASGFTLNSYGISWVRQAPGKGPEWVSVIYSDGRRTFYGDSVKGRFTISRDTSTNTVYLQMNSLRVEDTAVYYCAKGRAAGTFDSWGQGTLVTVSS
VL: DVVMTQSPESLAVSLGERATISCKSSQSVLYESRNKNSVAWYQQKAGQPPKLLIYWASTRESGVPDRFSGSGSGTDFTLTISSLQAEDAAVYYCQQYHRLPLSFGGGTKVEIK

Each variant is given by its three light chain CDRs, as the data file delimits them; those of the parent are KSSQSVLYESRNKNSVA, WASTRES, QQYHRLPLS. Values are log10 of the apparent Kd in nM; lower means stronger binding. Replicates are averaged; those with no signal do not enter the mean. "not detected" marks a missing value. The strain was present, yet no cells mated with the target were sequenced in any replicate, which points to weak or no binding. Values of this round are not directly comparable with the first-round values of the same sequences. The authors averaged sequences with at least three values out of six and counted those with two or fewer as poor binders. As a blank, each scFv also met three strains without target: over all light chain designs, 4% of these pairings were detected, typically at 2.64 and seldom below 1.59. The control count says in how many pairings with the empty strains this scFv gave a signal.

| CDR-L1 | CDR-L2 | CDR-L3 | mean, log10 nM | detected | empty controls |
|---|---|---|---|---|---|
| MISQLYNMGTFAINSVA | QASVRYE | QQYDRLPLI | 0.16 | 6/6 | 0/18 |
| KFSYSNPYETRNKNSVA | EASTREE | QQYHRLPLS | -0.21 | 6/6 | 4/18 |
| RIQDHMAVGTMSGSSIA | EEATWMD | QQYSRLPLA | 0.63 | 1/6 | 0/18 |
| SIYDATGMESRNKNPIA | DVSTRPN | QQYDRLPLS | 0.12 | 6/6 | 0/18 |
| KMQQLVWYEQRNKNSVA | DGSTREQ | QQYHRLPLS | 0.02 | 6/6 | 1/18 |
| KSSQSVSYEYRNKNSVA | SASTRES | QQYHRLPLS | not detected | 0/6 | 0/18 |
| TISQSAQMESHAKNSVA | DLNVRGS | QQYDRLPLS | 0.40 | 6/6 | 1/18 |
| QLGAVQDTTSKNKNSVA | EQSTREN | QQYHRLPLS | 0.42 | 6/6 | 0/18 |
| TISQMFLGESRWRNSVA | QASTRES | QSYDRLPLS | 1.49 | 6/6 | 3/18 |
| DLTVSDNYGSQLENNIA | QGVQKCE | QQYSRLPLA | -0.04 | 6/6 | 2/18 |
| KLSGLVNFFGHAINSVA | EMETREN | QQYDRLPLS | 1.36 | 6/6 | 0/18 |
| KSEQSVLYESTNKNSVA | WASTRES | QTYHRLPLS | not detected | 0/6 | 0/18 |
| KSSQSWLYESRNKNSVA | GASNRES | QQYHRLPLS | 0.01 | 6/6 | 3/18 |
| KSSQSVLYESRNKNSVA | WASTRES | GQYHRLPLS | not detected | 0/6 | 0/18 |
| KQQQSWDGQSRNKNSVA | HASKRES | QQYHRLPLS | 1.80 | 6/6 | 2/18 |
| KMSQSVEGLDRNWNSVA | YASTREM | QQYHRLPLS | 0.24 | 6/6 | 2/18 |
| KLSQSEGYESRNKNSVA | NASTRMS | QQYHRLPLS | -0.14 | 6/6 | 3/18 |
| KFKQSVLYESRNKNSVA | GASTREQ | QSYHRLPLS | 0.05 | 6/6 | 0/18 |
| KIAEQIMHVYIGANAIA | NATVRSA | QQYLRLPLM | 2.30 | 4/6 | 1/18 |
| KISQSQLYEDRNTKSVA | NASTRCS | QQYHRLPLS | 0.02 | 6/6 | 0/18 |
| KVRQGTLYESRNKNSVA | YASTRES | QQYHRLPLS | 0.46 | 6/6 | 0/18 |
| KSSQSVLAESSNKNSVA | WAHTRER | QQYHRLPLS | 1.58 | 6/6 | 1/18 |
| KLDQSVGYESRNKNNVA | EGSQRES | QQYHRLPLS | -0.76 | 6/6 | 0/18 |
| KSSQYVLYERRNENSVA | WASTRES | QQYHRLPLS | 0.09 | 6/6 | 3/18 |
| TISQMSTLFSMSINNVA | EVSTREE | QQYDRLPLA | 1.10 | 6/6 | 0/18 |
| KLSQSVLMESRMKNSVA | DASQREE | QQYHRLPLS | -0.24 | 6/6 | 2/18 |
| KVSEFMRGLMMRTDSIA | DNETRQS | QQYDRLPLS | 1.51 | 6/6 | 1/18 |
| LSSISYLYESRNKNSPG | EASTRES | QQYHRLPLS | not detected | 0/6 | 0/18 |
| QLGATFDMTSKNKNSVA | EQSTREN | QQYHRLPLS | 0.04 | 6/6 | 1/18 |
| KLYQNVGTMSVNKQSIA | DMERRED | QQYHRLPLS | 0.36 | 6/6 | 0/18 |
| TIGASLMYGSRNRSNVA | EVSERLN | QQYDRLPLL | 1.45 | 6/6 | 0/18 |
| SVQNYTENFMERGQNIA | DASAKTV | QQYDRLPLA | 1.07 | 6/6 | 1/18 |
| KSSQSVLYESRNKNSVA | AASTRES | QQYHRWPLS | 3.51 | 2/6 | 1/18 |
| KLRQVTGYEMYNKNSVA | QTSTRVN | QDYHRLPLS | 0.82 | 6/6 | 2/18 |
| KSSHSVLYESRNKNSVA | WASTRES | QQYHGLPLS | not detected | 0/6 | 1/18 |
| MISQVLNTLTKEGNNVA | DLAERED | QQYFRLPLS | 0.63 | 6/6 | 1/18 |
| KVQQSELYESRNKNSVA | NASQRES | QQYHRLPLS | 0.15 | 6/6 | 2/18 |
| KSSQSVLYESRNKNNVA | WASTRES | QQYFVLPTS | 4.02 | 1/6 | 1/18 |
| KSSQSVEYESSNKNSVA | WASTRES | QQYHRLPIS | 1.83 | 1/6 | 1/18 |
| KFSQSFLYESRNKNSVA | NASQRES | QQYHRLPLS | -0.16 | 6/6 | 0/18 |
| MISQLYNMGQFAINSVA | QASLRYN | QQYDRLPLM | not detected | 0/6 | 0/18 |
| KLPQSVLYESRNKNSVA | AASTREV | QQYHRLPLS | -0.24 | 6/6 | 2/18 |
| KLSQSVLYEMRMKNSVA | NASTRES | QQYHRLPLS | 0.70 | 6/6 | 1/18 |
| KSSISQLYASRMKNSVA | EASTRES | QQYHRLPLS | 0.56 | 6/6 | 2/18 |
| KMSQSWLYESRNKNSVA | NASQRMS | QQYHRLPLS | -0.11 | 6/6 | 2/18 |
| KSSQSVLGESRNKNSLA | WTSTRHS | QQYHRLPGS | not detected | 0/6 | 1/18 |
| KSSQSVLYESRNANSVA | NASTRES | QQYHRLPLS | 1.34 | 2/6 | 0/18 |
| KSSQSVLYESRNVNSVA | WDSTRVS | QQYHRLPLS | 1.25 | 6/6 | 0/18 |
| KFQQSVLYESRNKNSVA | NASQRES | QQYHRLPLS | -0.09 | 6/6 | 0/18 |
| KSQQSELYESRNKNSVA | NASTRMS | QQYHRLPLS | -0.07 | 6/6 | 1/18 |
| KSSWSVTYESRNDNSVA | WASTRES | QQYHRLPLS | not detected | 0/6 | 0/18 |
| KVYPSYLYESRNKNSVA | NASTRES | QQYHRLPLS | 0.49 | 6/6 | 2/18 |
| KLSQQWLYESRNKNSVA | NASTRES | QQYHRLPLS | 0.03 | 6/6 | 1/18 |
| KLSQSVLYESRNPNSVA | GASTRES | QQYHRLPLS | -0.01 | 6/6 | 1/18 |
| KLYQSVGYMSTNKNSVA | HASTRES | QQYDRLPLS | 0.48 | 6/6 | 1/18 |
| KVSQSVLYESRNKNSVA | DASTRMS | QQYHRLPLS | -0.32 | 6/6 | 1/18 |
| MISQLFMYGSRNYNSIA | QAEEREK | QQYDRLPLE | 3.24 | 4/6 | 1/18 |
| NFSYALFAEDAKKKSIA | ENEVTEY | QQYAKLPLT | 1.17 | 6/6 | 1/18 |
| KMVKAESEGDRHAANIA | NANKATD | QQYYRLPLA | 0.66 | 6/6 | 0/18 |
| DSSQGVLYESRNKNSVA | DASTRES | QQTHRLPLS | 0.77 | 6/6 | 1/18 |
| KSSQSVLYESTDKNSVA | WASTRES | QQYHREPLS | not detected | 0/6 | 1/18 |
| QIDSQYQHGTDQKKAMA | DSSVRTQ | QQYSRLPLS | -0.33 | 6/6 | 0/18 |
| KQDQSDGGEQRNKNSVA | SASTRCE | QQYHRLPLS | 0.20 | 6/6 | 0/18 |
| KSSQSMLQESRNKNNVA | WASTRES | QQYHRLPLY | 1.24 | 1/6 | 0/18 |
| KISQMYRYEQQNSSSIA | EANTRED | QSYHRLPLS | 2.08 | 6/6 | 0/18 |
| MISQLMNMGTFAINSVA | QASIRNQ | QQYDRLPLA | 2.10 | 1/6 | 0/18 |
| MLSQVTHSESRNKNSIA | EMVTREV | QQYDRLPLS | 1.16 | 6/6 | 0/18 |
| MISQMFEGLSHSKNPVA | QVSTREE | QQYHRLPLS | 1.78 | 4/6 | 0/18 |
| KQSQSALCESRNKNSVA | DASTRES | QQYHRLPLS | 0.50 | 6/6 | 0/18 |
| KISQSELYESRNKNSVA | NGSTRES | QQYHRLPLS | 0.08 | 6/6 | 4/18 |
| KLSQSFLYESRNKNSVA | NASQREQ | QQYHRLPLS | -0.11 | 6/6 | 1/18 |
| HLLYAGNTGSLYDNNVA | EGETVLD | QQYFRLPIT | 1.89 | 6/6 | 1/18 |

Top 4 of the variants detected in all replicates, tightest first:

| CDR-L1 | CDR-L2 | CDR-L3 | mean, log10 nM | detected | empty controls |
|---|---|---|---|---|---|
| KLDQSVGYESRNKNNVA | EGSQRES | QQYHRLPLS | -0.76 | 6/6 | 0/18 |
| QIDSQYQHGTDQKKAMA | DSSVRTQ | QQYSRLPLS | -0.33 | 6/6 | 0/18 |
| KVSQSVLYESRNKNSVA | DASTRMS | QQYHRLPLS | -0.32 | 6/6 | 1/18 |
| KLPQSVLYESRNKNSVA | AASTREV | QQYHRLPLS | -0.24 | 6/6 | 2/18 |

Values reported by Li et al. 2023, doi:10.1038/s41467-023-39022-2 (FLAb copy).